Consider one compound from PubChem BioAssay AID1835 (Johns Hopkins Ion Channel Center, 2009).

Amino acid sequences for entries named in this document (tags omitted). A change or cut given only in a name is not applied to a line headed by its entry.
UniProt Q12809: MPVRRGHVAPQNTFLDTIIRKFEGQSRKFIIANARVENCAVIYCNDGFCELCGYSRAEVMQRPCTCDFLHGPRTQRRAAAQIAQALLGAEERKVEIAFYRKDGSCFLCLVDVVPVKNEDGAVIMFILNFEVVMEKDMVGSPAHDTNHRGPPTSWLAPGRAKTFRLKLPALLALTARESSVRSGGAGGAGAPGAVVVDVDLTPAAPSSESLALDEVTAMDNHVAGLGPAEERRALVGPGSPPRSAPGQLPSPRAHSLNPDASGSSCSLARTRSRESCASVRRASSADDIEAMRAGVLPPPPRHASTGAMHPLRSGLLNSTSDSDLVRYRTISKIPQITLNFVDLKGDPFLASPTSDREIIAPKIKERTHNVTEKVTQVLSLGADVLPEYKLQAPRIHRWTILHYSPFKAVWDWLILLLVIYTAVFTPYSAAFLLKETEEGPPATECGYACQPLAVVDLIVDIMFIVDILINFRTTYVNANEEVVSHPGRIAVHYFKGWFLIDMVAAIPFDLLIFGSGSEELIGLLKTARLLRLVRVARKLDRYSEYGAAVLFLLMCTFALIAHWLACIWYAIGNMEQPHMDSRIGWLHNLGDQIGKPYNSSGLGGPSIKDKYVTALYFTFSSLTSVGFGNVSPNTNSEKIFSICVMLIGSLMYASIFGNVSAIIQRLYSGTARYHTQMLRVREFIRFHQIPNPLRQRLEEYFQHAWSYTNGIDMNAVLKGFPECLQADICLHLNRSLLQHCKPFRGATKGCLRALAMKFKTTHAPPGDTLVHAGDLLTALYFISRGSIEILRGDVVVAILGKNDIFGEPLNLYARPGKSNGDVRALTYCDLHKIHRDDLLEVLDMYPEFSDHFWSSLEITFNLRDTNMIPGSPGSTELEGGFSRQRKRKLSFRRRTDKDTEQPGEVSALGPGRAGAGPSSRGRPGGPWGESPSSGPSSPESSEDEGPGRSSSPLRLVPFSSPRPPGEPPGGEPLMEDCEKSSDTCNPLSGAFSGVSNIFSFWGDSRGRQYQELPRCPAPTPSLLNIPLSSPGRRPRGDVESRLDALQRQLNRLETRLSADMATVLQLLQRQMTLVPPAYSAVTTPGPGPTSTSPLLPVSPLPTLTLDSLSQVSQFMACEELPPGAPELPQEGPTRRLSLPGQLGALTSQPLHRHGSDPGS

This is a selection; strong and weak results do not stand in their true shares. Calls of active or inactive are those of the source.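 The calls were made as follows: active = median signal gain over dofetilide-blocked control wells reaching their mean plus 3 SD, so readout 1 at least 0; inactive = the rest.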

The target of this assay is Voltage-gated inwardly rectifying potassium channel KCNH2 (Homo sapiens) (UniProt Q12809). The assay is described as follows: hERG protection against dofetilide inhibition, confirmation, cell-based, thallium flux, duplicate retest, dofetilide IC70 (AID 1835). The settings on record: hERG cell line, FluxOR thallium flux, dofetilide-blocked; at 10 µM; active compounds read high.
Consider `Cc1ccc(NP(=O)(Oc2ccccc2F)Oc2ccccc2F)nc1`, for which the activity increase over dofetilide control, less the hit threshold is inactive: -6%.
